Data reported in patent US9931350B2, “Anti-infective and osteogenic compositions and methods of use” (BRIGHAM YOUNG UNIVERSITY, priority 2014, dated 2018).

Columns and labels:
ectopic bone formation = experiment: Mammalian ectopic bone formation model; type: in vivo, mouse; settings: 10 μg rhBMP-2 via ACS
Method: Using a mouse model, 10 μg rhBMP-2 was delivered via a Medronic absorbable collagen sponge (ACS). The effects of the addition of 25 μg and 250 μg ceragenin (CSA-90) were tested as was 250 μg ceragenin (CSA-90) dosed in the absence of rhBMP-2. Bone formation was examined by XR (Faxitron) and quantified by microCT (Skyscan 1174). Bone nodules were also examined by histology. Scanning data confirmed increases in bone volume with the addition of the ceragenin (See FIG. 1).

open fracture = experiment: Mammalian open fracture model, without bacteria inoculation; type: in vivo, rats
Method: (§1) A mammalian open fracture model was conducted using rats (n=42, n=41 after anesthesia recovery) with and without bacteria inoculation, based on the gap healing model of Chen et al. (J Bone Joint Surg Am. 88-A:1510-23, 2006). In this model, infection was initiated by delivery of 10^4 CFU of pathogenic Staphlococcus aureus in ACS at the time of surgery. […] Animals received treatment with 10 μg rhBMP-2 and/or 250 μg CSA-90 co-delivered via the ACS implant. The primary outcome measure was the number of animals culled with infected fractures. Animal health and radiographic bone healing were monitored by an experienced veterinarian in a blinded fashion to inoculation or treatment. Animals diagnosed as having progressively deteriorating condition with XRs showing evidence of infection were culled and infection confirmed by culture swab post-mortem. Secondary outcome measures included union at 3 weeks and 6 weeks (excluding pin-slippage), and bone callus microCT measures at 6 weeks.

Staphlococcus aureus = experiment: Mammalian open fracture model, inoculated with S. aureus; type: in vivo, rats
Method: as §1

B1: rhBMP-2: recombinant human bone morphogenetic protein BMP-2 (protein, UniProt P12643 283-396, looked up)
Bone morphogenetic protein 2: QAKHKQRKRLKSSCKRHPLYVDFSDVGWNDWIVAPPGYHAFYCHGECPFPLADHLNSTNHAIVQTLVNSVNSKIPKACCVPTELSAISMLYLDENEKVVLKNYQDMVVEGCGCR
B1 was tested, and the “Induction of bone nodules” value (ectopic bone formation) was “induced bone nodules”, the “Union rate at 3 weeks” value (open fracture; 3 weeks, no S. aureus) was 100% and the “Pin Slip Cull Rate” value (open fracture; no bacteria) was 17%. For the same molecule, the “# Infected Culls” value (open fracture; no bacteria, animals/group) was 0/6, the “# Pin Slips” value (open fracture; no bacteria, animals/group) was 1/6 and the “Pin Slip Cull Rate” value (Staphlococcus aureus; 10^4 cfu Staph) was 0%. The “# Infected Culls” value (Staphlococcus aureus; 10^4 cfu Staph, animals/group) was 3/3, the “# Pin Slips” value (Staphlococcus aureus; 10^4 cfu Staph, animals/group) was 0/3 and the “Animals culled with infected fractures” value (Staphlococcus aureus; inoculated with S. aureus) was “all animals being culled with infections”. For the same molecule, the “Time of cull with infection” value (Staphlococcus aureus; inoculated with S. aureus, n=3) was about 17 days and the “Union in the presence of bacteria” value (Staphlococcus aureus; rhBMP-2 alone) was “did not promote union”.
